ChEMBL document CHEMBL1131259, “Synthesis and evaluation of diphenyl phosphonate esters as inhibitors of the trypsin-like granzymes A and K and mast cell tryptase” (J Med Chem, 1998)

Molecular target: T1, Granzyme A (Homo sapiens) (UniProt P12544)
T1 sequence (whole entry): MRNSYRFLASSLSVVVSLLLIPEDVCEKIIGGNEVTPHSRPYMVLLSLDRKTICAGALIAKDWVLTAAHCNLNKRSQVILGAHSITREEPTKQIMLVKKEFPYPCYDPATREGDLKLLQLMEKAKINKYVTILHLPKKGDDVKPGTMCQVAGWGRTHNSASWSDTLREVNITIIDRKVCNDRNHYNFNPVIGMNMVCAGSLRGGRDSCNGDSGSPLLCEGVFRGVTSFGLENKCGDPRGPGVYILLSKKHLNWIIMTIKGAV
Assay: Inhibition of human granzyme A
Outline: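 Recombinant human and rat granzyme A, incubated with inhibitor (1.0–450 μM) at 25 °C in 0.1 M Hepes, 0.01 M CaCl2, pH 7.5 (7.6% DMSO). Timed aliquots were read for residual activity on Cbz-Arg-SBzl with DTNB at 405 nm. k_obs came from ln vt/vo vs time over 5–10 points and 2–3 half-lives, two k_obs per inhibitor. DMSO controls were run.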

Structure (SMILES): N=C(N)c1ccc(C(NC(=O)OCc2ccccc2)P(=O)(Oc2ccccc2)Oc2ccccc2)cc1 (stereo unspecified)
- kobs/[I] (second-order inactivation rate constant): 1180 M⁻¹ s⁻¹
